Bioassay records (PubChem)
Compounds with a hit are over-represented: about 4.2% of the library has one in this group of screens.
ALR H2O2 inh: blocks human ALR sulfhydryl oxidase activity | inhibition, % (concentration not given with the values) | AID 485317 | P55789 | 290,000 tested, 3.8% active | purified ALR, DTT oxidation, H2O2 HRP-luminol luminescence;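 active = mean and each replicate at 75% or more; inconclusive = only one of the two met; inactive = neither met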;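 note: stock transfer was 7.5 nL into about 7.5 µL; 0% = neutral wells and 100% = wells with inactivated enzyme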
UUG fidelity: modulators of yeast start codon fidelity, primary screen, whole organism, S. cerevisiae, single point, plate reader | AID 602363, 2012 | S. cerevisiae UUG-firefly luciferase reporter, luminescence/redox ratio | activity score, % at 18.7 µM | hit rate 0.13% among 350,000;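 active = replicate mean at a twofold rise or more, about +100% in these data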;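 also: firefly luciferase made from a UUG start codon reports start codon fidelity; reporter light over untreated wells divided by growth signal over untreated wells; some hits fall short of that in this replicate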
MC4R antag cAMP: MC4R antagonists of cAMP signaling, primary screen, cell-based, TR-FRET, antagonist arm of biased-ligand search | MC4R-expressing cells, MTII-stimulated cAMP, LANCE TR-FRET | inhibition, % at 6.5 µM | 0.48% of 360,000 active | AID 540295, 2011;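 active means inhibition above its plate's cutoff, the mean of tested wells on that plate plus 3 SD, cut at about 29% in these data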
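Test system: U2OS cells stably expressing human melanocortin 4 receptor (MC4R); also added: Melanotan II challenge; compound: 6.5 µM single dose; timing: 30-min compound preincubation, 1-h Melanotan II challenge, 1-h detection, room temperature; signal: Eu-cAMP/anti-cAMP TR-FRET, emission 671 nm; repeats: one well per compound, no replicates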
HDAC3 inhib: HDAC3 deacetylase inhibitors, primary screen, biochemical, fluorescence, cell-free homogeneous; Histone deacetylase 3 (Homo sapiens), O15379; recombinant HDAC3, fluorogenic peptide/trypsin coupled; inhibition, % at 8.3 µM; 0.15% of 320,000 active; AID 2718, 2010; in the data active means inhibition above about 26%, passing the limit was not always enough
MC4R barr agon: MC4R agonists recruiting beta-arrestin, primary screen, cell-based, luminescence, agonist arm of biased-ligand search. Melanocortin receptor 4 (Homo sapiens), P32245. U2OS MC4R beta-arrestin complementation; percent of melanotan II response, DMSO zero. activation, % at 8.9 µM. 0.98% of 360,000 active. AID 540308, 2011;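 active means activation above a per-plate cutoff, the mean activation of sample wells on that plate plus 3 SD, cut at about 8% in these data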
NALP1 inh: NALP1 inflammasome inhibitors in reconstituted yeast, colorimetric, S. cerevisiae, triplicate retest; inhibition, % at 10 µM; S. cerevisiae NALP1/ASC/caspase-1 growth, X-gal OD620, 72 h; 0.61% of 280,000 active; in the data active means inhibition mostly above about 24%, no sharp cut-off; inactive means mostly below about 32%
MC4R barr ag: MC4R beta-arrestin agonists, retest, confirmation, cell-based, luminescence, U2OS. 31% of 2,400 active. AID 602192, 2012. activation, % at 8.9 µM. U2OS MC4R beta-arrestin recruitment; scaled DMSO 0%, Melanotan II 100%. shares compounds with MC4R barr agon;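 active means mean activation across replicates above the hit cutoff set in the earlier primary screen, cut at about 8% in these data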
MOR-DOR barr ag: agonists of MOR-DOR heterodimerization, counter-screen for MC4R biased agonist project, cell-based, luminescence. shares compounds with MC4R barr agon. U2OS PathHunter beta-arrestin, beta-gal luminescence; percent of deltorphin B response, DMSO zero. activation, % at 9.2 µM. 5.8% of 2,400 active. AID 602194, 2012;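 active means mean activation across replicates exceeds the hit threshold derived in the earlier primary screen, cut at about 18% in these data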
Numbers stand for hits; i = inactive; nt = no result given.

Chains of the proteins cited; added tags and fusions are not shown.
Melanocortin receptor 4 (Homo sapiens), P32245, UniProt P32245, whole entry, looked up: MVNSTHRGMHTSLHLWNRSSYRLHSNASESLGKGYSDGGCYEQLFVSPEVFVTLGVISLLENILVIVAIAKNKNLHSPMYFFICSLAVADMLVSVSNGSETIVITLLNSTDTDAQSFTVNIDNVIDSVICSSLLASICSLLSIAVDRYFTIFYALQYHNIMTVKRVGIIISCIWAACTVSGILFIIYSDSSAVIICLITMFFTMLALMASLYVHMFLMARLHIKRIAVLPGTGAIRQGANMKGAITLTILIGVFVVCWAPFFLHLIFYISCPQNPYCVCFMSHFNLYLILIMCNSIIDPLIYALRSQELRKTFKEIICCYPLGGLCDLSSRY

SMILES | ALR H2O2 inh | UUG fidelity | MC4R antag cAMP | HDAC3 inhib | MC4R barr agon | NALP1 inh | MC4R barr ag | MOR-DOR barr ag
COc1cc(-c2nnc(COc3ccc(Cl)cc3C)o2)cc(OC)c1OC | i | i | i | i | 28.5 | i | i | i
Cc1ccc(NC(=O)NNC(=O)c2cc3ccccc3cc2O)cc1 | i | i | i | i | 12.7 | i | 15.1 | i
CCCNC(=O)C(Cc1ccc(Cl)cc1)NC(=O)c1ccc(C#N)cc1 (stereo not drawn) | i | i | i | i | i | nt | nt | nt
CCCNC(=O)C(Cc1ccc(Cl)cc1)NC(=O)c1ccc(-c2ccccc2)cc1 (stereo not drawn) | i | i | i | i | 14.1 | nt | i | i
C[C@H]1CN([C@@H](C)CO)C(=O)c2cc(NS(=O)(=O)c3ccccc3)ccc2O[C@@H]1CN(C)Cc1ccncc1 | nt | i | nt | nt | nt | nt | nt | nt
C[C@@H]1CN([C@@H](C)CO)C(=O)Cc2cc(NC(=O)NC3CCCCC3)ccc2O[C@H]1CN(C)Cc1ccc(Oc2ccccc2)cc1 | nt | i | nt | nt | nt | nt | nt | nt
COc1ccc2oc(C(=O)OCC(=O)NCc3ccccc3OC)c(C)c2c1 | i | i | i | i | 21.0 | nt | i | i
COc1ccccc1NC(=O)c1oc2ccccc2c1C | nt | i | i | nt | i | nt | nt | nt
COc1ccc2oc(C(=O)OCC(=O)Nc3ccc(NC(C)=O)cc3)c(C)c2c1 | i | i | i | i | i | nt | nt | nt
COc1ccccc1NC(=O)c1oc2ccccc2c1NC(=O)C1CC1 | i | i | i | i | 10.1 | i | i | i
COc1ccc(NC(=O)c2oc3ccccc3c2C)c(OC)c1 | i | i | i | i | 13.7 | i | i | i
C[C@H]1CN([C@@H](C)CO)C(=O)c2cc(C#Cc3ccccc3F)cnc2O[C@@H]1CN(C)S(=O)(=O)c1ccccc1F | nt | i | nt | nt | nt | nt | nt | nt
CC(C)CC#Cc1cnc2c(c1)C(=O)N([C@H](C)CO)C[C@H](C)[C@H](CN(C)C(=O)c1ccccc1F)O2 | nt | i | nt | nt | nt | nt | nt | nt
CC1(Oc2cccc(F)c2)CCN(Cc2ccc(-c3ccccc3)o2)C1 (stereo not drawn) | nt | i | i | nt | 10.0 | nt | i | i
S=c1[nH]c(-c2ccc(Br)cc2)cn1CCc1ccccc1 | i | nt | i | i | 19.0 | i | i | i
CCOC(=O)/C(C#N)=C(C)/C=C1\Sc2ccccc2N1CC | i | i | i | i | 18.4 | i | 15.1 | i
CCN1/C(=C\C(=S)Nc2ccccc2)Sc2ccccc21 | nt | i | i | i | i | i | nt | nt
O=[N+]([O-])c1cc(/C=N/O)ccc1SCc1ccccc1Cl | nt | i | i | i | 18.5 | i | i | i
C[C@@H]1CN([C@@H](C)CO)C(=O)Cc2cc(NC(=O)Cc3ccccc3)ccc2O[C@@H]1CN(C)Cc1ccncc1 | nt | i | nt | nt | nt | nt | nt | nt
Cc1ccc(C(=O)NC(=S)Nc2ccc(NC(=O)c3cccs3)cc2)cc1[N+](=O)[O-] | i | nt | i | i | 29.2 | i | i | i
O=C(NC(=S)Nc1ccc(NC(=O)c2cccs2)cc1)c1cc2ccccc2o1 | nt | nt | i | i | 26.3 | i | 9.6 | i
Cc1ccc(C(=O)Nc2ccc(NC(=O)c3cccs3)cc2)cc1[N+](=O)[O-] | i | i | i | i | i | i | nt | nt
CC(C)Oc1ccc(CNC(=O)Cn2c(=O)c3cccn3c3cccnc32)cc1 | i | i | i | i | i | i | nt | nt
CCOc1ccc(CNC(=O)Cn2c(=O)c3cccn3c3ccccc32)cc1 | i | i | i | i | 21.5 | i | i | i
COc1ccc(-c2csc(NC(=O)c3ccccc3NS(=O)(=O)c3ccc(F)c(F)c3)n2)cc1 | i | i | i | i | 15.1 | i | i | i
